Experimental data as given in BindingDB's records for doi:10.1021/jm031026e (Universit&#224, 2004).

Target: Sigma non-opioid intracellular receptor 1 (Cavia porcellus) (UniProt Q60492)
Experiment: In vitro binding affinity at opioid sigma-1 receptor in guinea pig brain membranes by (+)-[3H]pentazocine displacement.

SMILES | Ki [nM]
COc1cccc2c1CCCC2CCCCN1CCN(C2CCCCC2)CC1 (configuration not stated) [1-cyclohexyl-4-(4-(5-methoxy-1,2,3,4-tetrahydronaphthalen-1-yl)butyl)piperazine] | 1.54
Oc1cccc2c1CCCC2CCCN1CCN(C2CCCCC2)CC1 (configuration not stated) [5-[3-(4-Cyclohexyl-piperazin-1-yl)-propyl]-5,6,7,8-tetrahydro-naphthalen-1-ol] | 5.4
